In general, Kd refers to a measure of binding affinity in units of concentration. The low end stands for higher affinity, the high end for lower affinity.

Chains of the proteins cited; added tags and fusions are not shown.
UniProt P62937, whole entry: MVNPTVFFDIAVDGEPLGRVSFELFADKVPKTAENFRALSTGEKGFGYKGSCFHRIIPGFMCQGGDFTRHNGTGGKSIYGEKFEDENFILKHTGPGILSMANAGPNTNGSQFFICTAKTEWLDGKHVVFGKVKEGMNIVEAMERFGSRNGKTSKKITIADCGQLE

The values below come from paper PMC5430804, “Structural and biochemical insights of CypA and AIF interaction” (Scientific Reports, 2017).

In the assay the target is CypA peptide substrate. The assay can be described thus: not stated; binding of CypA wild type or R55A to a peptide substrate in the presence and absence of AIF(370-394) (10-fold excess) and CsA (Supplementary Fig. S8).

Substance “His-tagged Cyclophilin A (CypA) (from UniProt P62937 1-165) (enzyme)” gave a Kd of 57 nM.
